The text below walks through data of patent publication US20230173092A1, “ANTIBODY-DRUG CONJUGATES” (priority 2020, published 2023).

Where two headings read alike, the source gives them in different places. Where only a bound is given, the exact number is not on record here.

The subject of assay [1] is Her2High SK-BR-3 (human breast adenocarcinoma) cells. Nature of the assay: CellTiter-Glo luminescence viability assay with MMAE ADC, SK-BR-3. In kind it is cell-based. To be noted: SK-BR-3 (Her2 High), 96 hours, n = 3. How it is done:
(§1) The CellTiter-Glo® luminescence viability assay was used to measure the inhibitory effect of the MMAE ADC prepared in Example 3 on cell growth. Any reduction in cell proliferation or metabolic activity is indicative of the cytotoxic and/or cytostatic properties of a compound.
(§2) Her2^High SK-BR-3 (human breast adenocarcinoma, ATCC® HTB-30, Manassas, Va., United States) were cultured in McCoy's 5A medium supplemented with 200 U/mL penicillin, 200m/mL streptomycin and 20% heat-inactivated fetal bovine serum. Her2^Low JIMT-1 (human breast carcinoma, ACC589, DSMZ, Braunschweig, Germany) were cultured in DMEM GlutaMax® medium supplemented with 200 U/mL penicillin, 200 μg/mL streptomycin and 10% heat-inactivated fetal bovine serum. […]
(§3) After 96 hours in the presence of ADCs or controls, viability was detected using the CellTiterGlo® luminescence assay. […] The plates were then mixed for 3 minutes at 300 rpm to assist cell lysis and incubated for a further 20 minutes at room temperature to stabilise the luminescence signal. Luminescence was recorded using a SpectraMax i3x plate reader with a default integration time of 0.5 s/well.
(§4) Data were then analysed using a four-parameter non-linear regression model. Viability was expressed as a percentage of untreated cells, 100% viability corresponding to the average luminescence of wells containing cells treated with complete medium only. […]
A general note: Cellular ATP, detected with luciferase, serves as a proxy for viable cell number.

Assay [2] deals with Her2Negative NCI-H520 (human lung squamous cell carcinoma) cells. In words: CellTiter-Glo luminescence viability assay with MMAE ADC, NCI-H520. The class given is cell-based. Conditions: NCI-H520 (Her2 Negative), 96 hours, n = 3. How it is done: as §1, §2, §3, §4
In assay [3] the test system is NCI-N87 human gastric cancer CDX model. Nature of the assay: In vivo anti-tumour efficacy study in subcutaneous NCI-N87 CDX model in female BALB/c Nude mice. More on the design: species or system Mus musculus. Conditions: 3 mg/kg IV single dose. The procedure:
The objective of this study was to evaluate the in vivo anti-tumour efficacy of the MMAE ADC of Example 3 in the subcutaneous NCI-N87 human gastric cancer CDX model in female BALB/c Nude mice.
The NCI-N87 tumor cells (ATCC, Manassas, Va., cat #CRL-5822) were maintained in vitro as a monolayer culture in RPMI-1640 medium supplemented with 10% fetal bovine serum, 1% Antibiotic-Antimycotic, at 37° C. in an atmosphere of 5% CO2 in air. The tumour cells were routinely subcultured twice weekly by trypsin-EDTA treatment. The cells growing in an exponential growth phase were harvested and counted for tumour inoculation.
Each mouse for efficacy study was inoculated subcutaneously at the right flank with NCI-N87 tumour cells (10×10^6) in 0.2 mL of PBS supplemented with Matrigel (1:1) for tumour development. Treatments were started on day 6 after tumour inoculation when the average tumour size reached approximately 198 mm^3. […]
All the procedures related to animal handling, care and the treatment in the study were performed according to the guidelines approved by the Institutional Animal Care and Use Committee (IACUC) of the CRO following the guidance of the Association for Assessment and Accreditation of Laboratory Animal Care (AAALAC). At the time of routine monitoring, the animals were daily checked for any effects of tumour growth and treatments on normal behaviour such as mobility, food and water consumption (by looking only), body weight gain/loss (body weights were measured twice weekly), eye/hair matting and any other abnormal effect as stated in the protocol. Death and observed clinical signs were recorded on the basis of the numbers of animals within each subset.
The major endpoint was to see if the tumour growth could be delayed or mice could be cured. Tumour size was measured twice weekly in two dimensions using a calliper, and the volume was expressed in mm^3 using the formula: V=0.5 a×b^2 where a and b are the long and short diameters of the tumour, respectively. […]

Assay [4] relates to SK-BR-3 (HER2 High) cells. Nature of the assay: CellTiter-Glo luminescence viability assay with SN-38 ADCs, SK-BR-3, limited and continuous exposure. The class given is cell-based, human. Conditions: n = 3. The procedure:
The CellTiter-Glo® luminescence viability assay (Promega, Southampton, UK) was used to measure the inhibitory effect of the SN-38 ADCs on cell growth. Any reduction in cell proliferation or metabolic activity is indicative of the cytotoxic and/or cytostatic properties of a compound. SK-BR-3 cells (human breast adenocarcinoma, ATCC HTB-30) were cultured in McCoys 5A media (ThermoFisher Scientific, Loughborough, UK) supplemented with 200 U/mL penicillin, 200 μg/mL streptomycin and 20% heat-inactivated fetal bovine serum (Cytiva Hyclone™, ThermoFisher Scientific, Loughborough, UK). SK-BR-3 (HER2 High) cells were seeded in 384-well plates at a density of 1.25×10^3 cells in 20 μL growth medium. […]
Viability was detected using the CellTiter-Glo® luminescence assay. […] The plates were then mixed for 3 minutes at 300 rpm to assist cell lysis and incubated for a further 20 minutes at room temperature to stabilise the luminescence signal. Luminescence was recorded using a SpectraMax i3x plate reader (Molecular Devices, Wokingham, UK), with a default integration time of 0.5 s/well. […]
Data was then analysed on GraphPad Prism version 8 (GraphPad Software, La Jolla, Calif.) using a four-parameter non-linear regression model. Viability was expressed as a percentage of untreated cells, 100% viability corresponding to the average luminescence of wells containing cells treated with complete medium only. […]

As usually defined, the IC50 is the concentration that inhibits the measured activity by half. Usually T/C stands for the ratio of treated to control. One may read the TGI as how far tumour growth fell short of that in controls. A low value points to a weaker effect on the tumour. Turning to Kadcyla ®, the values for the IC50 in assay [1] and in assay [2] were 0.047 ± 0.021 nM and 37.3 ± 16.1 nM, respectively. Further, in assay [3], the “mean tumour volume on PG-D42” value is 574 mm^3. The same substance had a T/C in assay [3] (PG-D42) of 29.37%. Besides, the TGI in assay [3] (PG-D42) is reported as 78.58%.

For Trastuzumab, the results for the IC50 in assay [1] and in assay [2] were 0.141 ± 0.138 nM and > 1000 nM, respectively.

Take Trastuzumab-CL2A-SN-38: the concentration for half-maximal inhibition (IC50) came out at 0.1 ± 0.01 nM in assay [4] (continuous exposure 96 h, read-out: SK-BR-3 IC50 (nM) Mean (±St.Dev.) 96 h exposure) and 5.56 ± 2.91 nM in assay [4] (limited exposure 9 h, washed, further 96 hours, read-out: SK-BR-3 IC50 (nM) Mean (±St.Dev.) 9 h exposure).
